Experimental data published in patent US20230321123A1, “INHIBITORS OF PSEUDOMONAS AERUGINOSA VIRULENCE FACTOR LasB” (Helmholtz-Zentrum Für Infektionsforschung GmbH, priority 2020, published 2023).

By UniProt entry, the sequences of proteins in these tests, tags left out. Residues count along the entry.
UniProt Q02RJ6, 198-498: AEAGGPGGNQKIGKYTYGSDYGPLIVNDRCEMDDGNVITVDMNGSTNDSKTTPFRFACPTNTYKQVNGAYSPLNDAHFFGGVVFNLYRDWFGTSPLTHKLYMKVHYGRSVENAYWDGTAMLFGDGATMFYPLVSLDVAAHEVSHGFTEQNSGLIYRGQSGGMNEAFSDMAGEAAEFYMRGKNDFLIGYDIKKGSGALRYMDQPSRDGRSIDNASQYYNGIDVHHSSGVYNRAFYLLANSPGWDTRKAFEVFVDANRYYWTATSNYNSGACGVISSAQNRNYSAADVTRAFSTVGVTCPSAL

Biological target: LasB (Pseudomonas aeruginosa, UniProt Q02RJ6)
Experiment: biochemical
Set-up: species or system P. aeruginosa
Conditions: IC50 against LasB

SMILES: COc1ccc(NC(=O)C(S)CC(C)C)cc1OC (stereo not shown) [Example 36]
- IC50: 730 ± 100 nM
